In patent US10912763B2 (priority 2010, dated 2021):
Like-named read-outs stand apart in the source and are kept apart here.

Tested on: painful diabetic neuropathy

With `CN(C)[C@]1(c2ccccc2)CC[C@]2(CC1)OCCc1c3cc(F)ccc3[nH]c12` the “Effect compared with placebo” value (40 μg once daily, no differentiation from day 1 onwards) was “differentiated from placebo on day 5”, the “Number of events leading to withdrawal” value (40 μg, Study A) was 0 and the “Number of serious TEAEs” value (40 μg, Study A) was 0. For the same molecule, the “Subjects with TEAEs (number)” value (40 μg, Study A) was 21, the “Subjects with TEAEs (percent)” value (40 μg, Study A) was “(80.8%)” and the “TEAEs (%) Back pain” value (40 μg, Study A) was 7.7%. The “TEAEs (%) Bacteriuria” value (40 μg, Study A) was 0%, the “TEAEs (%) Cold sweat” value (40 μg, Study A) was 0% and the “TEAEs (%) Constipation” value (40 μg, Study A) was 23.1%. For the same molecule, the “TEAEs (%) Dizziness” value (40 μg, Study A) was 26.9%, the “TEAEs (%) Dyspepsia” value (40 μg, Study A) was 7.7% and the “TEAEs (%) ECG QT prolonged” value (40 μg, Study A) was 0%. For the same molecule, the “TEAEs (%) Fatigue” value (40 μg, Study A) was 11.5%, the “TEAEs (%) Headache” value (40 μg, Study A) was 34.6% and the “TEAEs (%) Hyperglycemia” value (40 μg, Study A) was 0%. For the same molecule, the “TEAEs (%) Nausea” value (40 μg, Study A) was 26.9%, the “TEAEs (%) Oral discomfort” value (40 μg, Study A) was 7.7% and the “TEAEs (%) Oropharyngeal Pain” value (40 μg, Study A) was 0%. The “TEAEs (%) Peripheral oedema” value (40 μg, Study A) was 7.7%, the “TEAEs (%) Pruritus” value (40 μg, Study A) was 0% and the “TEAEs (%) Vision blurred” value (40 μg, Study A) was 0%. The “TEAEs (%) Visual impairment” value (40 μg, Study A) was 0%, the “TEAEs (%) Vomiting” value (40 μg, Study A) was 0% and the “Total number of TEAEs” value (40 μg, Study A) was 65. The “Total number of TEAEs, at least possibly related (in brackets)” value (40 μg, Study A) was “(39)”, the “Mean daily pain intensity change from baseline, difference to placebo” value (80 μg to 200 μg once daily for 5 days (except the 120 μg group)) was “statistically significant differences to placebo” and the “Number of events leading to withdrawal” value (80 μg, Study B) was 0. The “Number of serious TEAEs” value (80 μg, Study B) was 0, the “Subjects with TEAEs (number)” value (80 μg, Study B) was 16 and the “Subjects with TEAEs (percent)” value (80 μg, Study B) was “(69.6%)”. For the same molecule, the “TEAEs (%) Back pain” value (80 μg, Study B) was 0%, the “TEAEs (%) Bacteriuria” value (80 μg, Study B) was 8.7% and the “TEAEs (%) Cold sweat” value (80 μg, Study B) was 8.7%. The “TEAEs (%) Constipation” value (80 μg, Study B) was 0%, the “TEAEs (%) Dizziness” value (80 μg, Study B) was 26.1% and the “TEAEs (%) Dyspepsia” value (80 μg, Study B) was 4.3%. For the same molecule, the “TEAEs (%) ECG QT prolonged” value (80 μg, Study B) was 8.7%, the “TEAEs (%) Fatigue” value (80 μg, Study B) was 4.3% and the “TEAEs (%) Headache” value (80 μg, Study B) was 13.0%. For the same molecule, the “TEAEs (%) Hyperglycemia” value (80 μg, Study B) was 8.7%, the “TEAEs (%) Nausea” value (80 μg, Study B) was 13.0% and the “TEAEs (%) Oral discomfort” value (80 μg, Study B) was 0%. For the same molecule, the “TEAEs (%) Oropharyngeal Pain” value (80 μg, Study B) was 0%, the “TEAEs (%) Peripheral oedema” value (80 μg, Study B) was 0% and the “TEAEs (%) Pruritus” value (80 μg, Study B) was 0%. For the same molecule, the “TEAEs (%) Vision blurred” value (80 μg, Study B) was 4.3%, the “TEAEs (%) Visual impairment” value (80 μg, Study B) was 0% and the “TEAEs (%) Vomiting” value (80 μg, Study B) was 4.3%. The “Total number of TEAEs” value (80 μg, Study B) was 53, the “Total number of TEAEs, at least possibly related (in brackets)” value (80 μg, Study B) was “(24)” and the “Number of events leading to withdrawal” value (100 μg, Study C) was 0. For the same molecule, the “Number of serious TEAEs” value (100 μg, Study C) was 0, the “Subjects with TEAEs (number)” value (100 μg, Study C) was 27 and the “Subjects with TEAEs (percent)” value (100 μg, Study C) was “(73%)”. For the same molecule, the “TEAEs (%) Back pain” value (100 μg, Study C) was 0%, the “TEAEs (%) Bacteriuria” value (100 μg, Study C) was 10.8% and the “TEAEs (%) Cold sweat” value (100 μg, Study C) was 2.7%. The “TEAEs (%) Constipation” value (100 μg, Study C) was 16.2%, the “TEAEs (%) Dizziness” value (100 μg, Study C) was 18.9% and the “TEAEs (%) Dyspepsia” value (100 μg, Study C) was 5.4%. For the same molecule, the “TEAEs (%) ECG QT prolonged” value (100 μg, Study C) was 0%, the “TEAEs (%) Fatigue” value (100 μg, Study C) was 13.5% and the “TEAEs (%) Headache” value (100 μg, Study C) was 8.1%. The “TEAEs (%) Hyperglycemia” value (100 μg, Study C) was 2.7%, the “TEAEs (%) Nausea” value (100 μg, Study C) was 13.5% and the “TEAEs (%) Oral discomfort” value (100 μg, Study C) was 0%. For the same molecule, the “TEAEs (%) Oropharyngeal Pain” value (100 μg, Study C) was 5.6%, the “TEAEs (%) Peripheral oedema” value (100 μg, Study C) was 0% and the “TEAEs (%) Pruritus” value (100 μg, Study C) was 10.8%. For the same molecule, the “TEAEs (%) Vision blurred” value (100 μg, Study C) was 2.7%, the “TEAEs (%) Visual impairment” value (100 μg, Study C) was 2.7% and the “TEAEs (%) Vomiting” value (100 μg, Study C) was 13.5%.
